Here are results for 91 compounds from PubChem BioAssay AID588453 (National Center for Advancing Translational Sciences (NCATS), 2011).

By UniProt entry, the sequences of proteins in these tests, tags left out.
UniProt O89049, whole entry: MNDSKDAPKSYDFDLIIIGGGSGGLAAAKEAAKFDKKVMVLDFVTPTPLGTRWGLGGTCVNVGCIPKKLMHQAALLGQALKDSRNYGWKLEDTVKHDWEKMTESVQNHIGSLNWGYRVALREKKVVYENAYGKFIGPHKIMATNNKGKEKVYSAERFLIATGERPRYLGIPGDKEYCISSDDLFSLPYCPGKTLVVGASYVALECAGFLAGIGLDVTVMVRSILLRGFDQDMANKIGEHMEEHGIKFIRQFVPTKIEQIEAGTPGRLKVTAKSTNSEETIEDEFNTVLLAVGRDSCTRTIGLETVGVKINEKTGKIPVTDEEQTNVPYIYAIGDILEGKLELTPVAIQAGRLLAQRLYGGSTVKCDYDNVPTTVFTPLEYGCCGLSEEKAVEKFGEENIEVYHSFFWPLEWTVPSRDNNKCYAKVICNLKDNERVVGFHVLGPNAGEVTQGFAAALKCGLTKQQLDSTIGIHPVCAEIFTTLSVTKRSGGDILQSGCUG

Structures are written as SMILES. The entries are a selection whose mix differs from that of the whole data set. Results filed as inconclusive are left out. Where a call stands in place of a potency, no number is given. Some salts and complexes are drawn in separate pieces, as the source files them; their charges need not balance. Active and inactive are the calls of the source. Calls follow the shape of the dose curve; as a rule, active = well fitted inhibition curve with a large enough effect; inconclusive = small, poorly fitted or top-dose-only effect; inactive = no such curve, though single readings can be large or run the other way.
Potency is read from the fitted curve at half-maximal effect.

This assay concerns the target Thioredoxin reductase 1, cytoplasmic (Rattus norvegicus) (UniProt O89049). The assay is described as follows: qHTS Assay for Inhibitors of Mammalian Selenoprotein Thioredoxin Reductase 1 (TrxR1): qHTS. Also: nearly all actives have a fitted effect of over 65% in size. To be noted: recombinant rTrxR1, NADPH fluorescence consumption, selenite substrate; series mostly up to 114 µM. In general terms: qHTS replaces the single test concentration by a dilution series.
Regarding `CSc1ccc(C(=O)NCC2(N3CCOCC3)CCCCC2)cc1`, the activity change, negative = inhibition result was “inactive”.

Consider `CCOc1ccc(C(=O)NCC2(N3CCOCC3)CCCCC2)cc1`, for which the activity change, negative = inhibition entry is “inactive”.

In the case of `O=C(NCC1(N2CCCCC2)CCCCC1)c1cccc([N+](=O)[O-])c1`, the activity change, negative = inhibition entry is “inactive”.

`CCN1CCC(Nc2ccc(Cl)cc2)CC1`: the activity change, negative = inhibition entry is “inactive”.

For `N#CC1(Nc2ccccc2)CCN(CCc2ccccc2)CC1`, the activity change, negative = inhibition entry was “inactive”.

As for `O=C(NCC1(N2CCCCC2)CCCCC1)c1ccc(OC(F)F)cc1`, the activity change, negative = inhibition entry is “inactive”.

In the case of `COc1ccc(NC2CCN(C(=O)OC(C)(C)C)CC2)cc1`, the activity change, negative = inhibition result is “inactive”.

For the compound `CC(C)c1ccc(C(=O)NCC2(N3CCOCC3)CCCCC2)cc1`, the activity change, negative = inhibition entry is “inactive”.

With `CN1CCN(CCOC(=O)C(O)(c2ccccc2)c2ccccc2)CC1`, the activity change, negative = inhibition entry is “inactive”.

Turning to `O=C(NCC1(N2CCOCC2)CCCCC1)c1cc(=O)[nH]c2ccccc12`, the activity change, negative = inhibition entry was “inactive”.

In the case of `COc1cc(C(=O)NCC2(N3CCCCC3)CCCCC2)ccc1OC(F)F`, the activity change, negative = inhibition result is “inactive”.

On to `O=C(NCC1(N2CCCCC2)CCCCC1)c1cccc(C(F)(F)F)c1`, for which the activity change, negative = inhibition entry is “inactive”.

`CCCOc1cccc(C(=O)NCC2(N3CCOCC3)CCCCC2)c1`: the activity change, negative = inhibition result is “inactive”.

For `COc1cc(OC)c(C(=O)NCC2(N(C)C)CCCCC2)cc1OC`, the activity change, negative = inhibition entry is “inactive”.

As to `O=C(NCC1(N2CCOCC2)CCCCC1)c1cc(F)c(F)cc1Cl`, the activity change, negative = inhibition result was “inactive”.

For `COc1ccc(CN(CCCl)CCCl)cc1Cl`, the Potency was active: 7.08 µM.

On to `CN(C)c1cccc(C(=O)NCC2(N3CCCCC3)CCCCC2)c1`, for which the activity change, negative = inhibition result was “inactive”.

For `O=[N+]([O-])c1cc([N+](=O)[O-])c(OC2CCCCC2O)c([N+](=O)[O-])c1` (stereo unspecified), the activity change, negative = inhibition result is “inactive”.

Consider `CC(C)c1ccc(NC2CCN(C(=O)OC(C)(C)C)CC2)cc1`, for which the activity change, negative = inhibition result is “inactive”.

For `CCCCOc1ccccc1C(=O)NCC1(N2CCOCC2)CCCCC1`, the activity change, negative = inhibition entry was “inactive”.

On to `CCCOc1ccc(C(=O)NCC2(N(C)C)CCCCC2)cc1OC`, for which the activity change, negative = inhibition entry was “inactive”.

For `O=C(NCC1(N2CCOCC2)CCCCC1)c1ccccc1Br`, the activity change, negative = inhibition result was “inactive”.

On to `O=C(NCC1(N2CCCCC2)CCCCC1)c1cncc(Br)c1`, for which the activity change, negative = inhibition result is “inactive”.

With `COc1ccc2c(c1O)-c1c(O)c(OC)cc3c1[C@H](C2)[N+](C)(C)CC3.O=[N+]([O-])c1cc([N+](=O)[O-])c([O-])c([N+](=O)[O-])c1[O-]`, the activity change, negative = inhibition result was “inactive”.

As for `CN1CCC(Nc2cccc(F)c2)CC1`, the activity change, negative = inhibition result was “inactive”.

On to `O=C(OC1CN2CCC1CC2)c1ccc([N+](=O)[O-])cc1` (stereo unspecified), for which the activity change, negative = inhibition entry was “inactive”.

With `CSc1ccccc1C(=O)NCC1(N2CCCCC2)CCCCC1`, the activity change, negative = inhibition result was “inactive”.

For the compound `Cc1cccc(NC2(C#N)CCN(Cc3ccccc3)CC2)c1`, the activity change, negative = inhibition result is “inactive”.

For the compound `O=C(NCC1(N2CCCCC2)CCCCC1)c1ccc(=O)[nH]c1`, the activity change, negative = inhibition result was “inactive”.

Take `O=C(NCC1(N2CCCCC2)CCCCC1)c1cccs1`: the activity change, negative = inhibition result was “inactive”.

Turning to `COc1ccc(C(=O)NCC2(N3CCCCC3)CCCCC2)cc1`, the activity change, negative = inhibition entry is “inactive”.

On to `COc1ccc(C(=O)NCC2(N3CCCCC3)CCCCC2)c(OC)c1OC`, for which the activity change, negative = inhibition result is “inactive”.

Consider `CC(C)(C)OC(=O)N1CCC(N(C(=O)c2ccccc2)c2ccc(F)cc2)CC1`, for which the activity change, negative = inhibition entry is “inactive”.

`CCOC(=O)N1CCC(Nc2ccc(OC)cc2)CC1`: the activity change, negative = inhibition result was “inactive”.

On to `O=C(OC1CN2CCC1CC2)C1c2ccccc2Oc2ccccc21` (stereo unspecified), for which the activity change, negative = inhibition entry was “inactive”.

With `N#CC1(Nc2ccccc2)CCN(Cc2ccccc2)CC1`, the activity change, negative = inhibition result was “inactive”.

`O=C(NCC1(N2CCCCC2)CCCCC1)c1ccc(Cl)s1`: the activity change, negative = inhibition result was “inactive”.

Turning to `O=C1C(O)=C([N+](=O)[O-])C(=O)C(O)=C1[N+](=O)[O-]`, the activity change, negative = inhibition result is “inactive”.

For `COc1ccc(Cl)cc1C(=O)NCC1(N2CCOCC2)CCCCC1`, the activity change, negative = inhibition result is “inactive”.

With `O=C(NCC1(N2CCOCC2)CCCCC1)c1cc2ccccc2o1`, the activity change, negative = inhibition result is “inactive”.

`O=C(NCC1(N2CCCCC2)CCCCC1)c1ccc(Cl)nc1`: the activity change, negative = inhibition entry was “inactive”.

As to `Cc1cc(C)cc(N(C(=O)c2ccccc2)C2CCN(C(=O)OC(C)(C)C)CC2)c1`, the activity change, negative = inhibition entry was “inactive”.

With `O=C(NCC1(N2CCCCC2)CCCCC1)c1ccc(F)cc1`, the activity change, negative = inhibition result is “inactive”.

As for `CCCCOc1ccc(C(=O)NCC2(N3CCOCC3)CCCCC2)cc1`, the activity change, negative = inhibition result is “inactive”.

In the case of `O=P1(N(CCCl)CCCl)SCCCS1`, the activity change, negative = inhibition result was “inactive”.

On to `CCOC(=O)N1CCC(Nc2ccc(F)cc2)CC1`, for which the activity change, negative = inhibition result is “inactive”.

Consider `COc1ccc(NC2CCN(CCc3ccccc3)CC2)c(OC)c1`, for which the activity change, negative = inhibition result is “inactive”.

Turning to `COc1ccccc1C(=O)NCC1(N2CCOCC2)CCCCC1`, the activity change, negative = inhibition entry is “inactive”.

`O=C(NCC1(N2CCOCC2)CCCCC1)c1ccc(Cl)cc1`: the activity change, negative = inhibition result was “inactive”.

Regarding `O=C1CCN(Cc2ccccc2)CC1`, the activity change, negative = inhibition entry is “inactive”.

Consider `COc1cc(C(=O)NCC2(N(C)C)CCCCC2)ccc1OC(F)F`, for which the activity change, negative = inhibition result was “inactive”.

Turning to `CCOC(=O)N1CCC(Nc2cccc(C)c2)CC1`, the activity change, negative = inhibition result is “inactive”.

Take `Cc1ccc(NC2(C#N)CCN(Cc3ccccc3)CC2)cc1`: the activity change, negative = inhibition result is “inactive”.

Regarding `Cc1ccc(C(=O)NCC2(N3CCCCC3)CCCCC2)o1`, the activity change, negative = inhibition result was “inactive”.

`Fc1ccccc1NC1CCN(Cc2ccccc2)CC1`: the activity change, negative = inhibition result is “inactive”.

Consider `COc1cc(OC)cc(C(=O)NCC2(N3CCCCC3)CCCCC2)c1`, for which the activity change, negative = inhibition entry was “inactive”.

For the compound `CC(=O)N(c1ccccc1)C1CCNCC1`, the activity change, negative = inhibition result was “inactive”.

`CN(C)C1(CNC(=O)c2ccc(C(C)(C)C)cc2)CCCCC1`: the activity change, negative = inhibition result is “inactive”.

As to `CC(C)(C)c1ccc(C(=O)NCC2(N3CCOCC3)CCCCC2)cc1`, the activity change, negative = inhibition result is “inactive”.

In the case of `O=C(NCC1(N2CCCCC2)CCCCC1)c1ccco1`, the activity change, negative = inhibition result is “inactive”.

On to `CN(C)c1ccc(C(=O)NCC2(N3CCCCC3)CCCCC2)cc1`, for which the activity change, negative = inhibition result is “inactive”.

On to `Cc1ccccc1C(=O)NCC1(N(C)C)CCCCC1`, for which the activity change, negative = inhibition entry was “inactive”.

For the compound `Cc1ccccc1NC1(C#N)CCN(Cc2ccccc2)CC1`, the activity change, negative = inhibition entry was “inactive”.

For `CCN1CCC(Nc2cccc(F)c2)CC1`, the activity change, negative = inhibition entry is “inactive”.

Take `CCCOc1ccc(C(=O)NCC2(N(C)C)CCCCC2)cc1`: the activity change, negative = inhibition result was “inactive”.

For `CC(C)(C)OC(=O)N1CCC(Nc2ccccc2)CC1`, the activity change, negative = inhibition entry was “inactive”.

On to `O=C(O)C1(Nc2ccccc2)CCN(Cc2ccccc2)CC1`, for which the activity change, negative = inhibition result was “inactive”.

For the compound `CCOc1ncccc1C(=O)NCC1(N2CCOCC2)CCCCC1`, the activity change, negative = inhibition result was “inactive”.

As for `CN1CCC(Nc2ccc(F)c(Cl)c2)CC1`, the activity change, negative = inhibition entry was “inactive”.

As for `CN1CCC(Nc2ccc(Cl)cc2)CC1`, the activity change, negative = inhibition result is “inactive”.

For the compound `CCC(CO)(C(=O)OC1CN2CCC1CC2)c1ccccc1` (stereo unspecified), the activity change, negative = inhibition result is “inactive”.

Turning to `COc1cccc(C(=O)N(c2cc(C)cc(C)c2)C2CCN(C(=O)OC(C)(C)C)CC2)c1`, the activity change, negative = inhibition result was “inactive”.

As for `COc1cc(C(=O)NCC2(N3CCOCC3)CCCCC2)cc(OC)c1OC`, the activity change, negative = inhibition entry is “inactive”.

Take `COc1cc(OC)cc(C(=O)NCC2(N3CCOCC3)CCCCC2)c1`: the activity change, negative = inhibition result is “inactive”.

Regarding `O=Cc1ccc(N(CCCl)CCCl)cc1`, the activity change, negative = inhibition result is “inactive”.

Take `O=C(NCC1(N2CCOCC2)CCCCC1)c1cc(Br)ccc1Cl`: the activity change, negative = inhibition entry is “inactive”.

As for `COc1cc(C(=O)NCC2(N3CCOCC3)CCCCC2)cc(OC)c1C`, the activity change, negative = inhibition entry is “inactive”.

With `O=C(OC1CN2CCC1CC2)C1c2ccccc2C=Cc2ccccc21` (stereo unspecified), the activity change, negative = inhibition result is “inactive”.

Consider `CCc1cc(C(=O)NCC2(N3CCCCC3)CCCCC2)sc1C`, for which the activity change, negative = inhibition entry was “inactive”.

Consider `N/C(=N\O)c1c(N)no[n+]1[O-]`, for which the activity change, negative = inhibition result is “inactive”.

Turning to `CCOC(=O)N1CCC(Nc2ccc(C)cc2)CC1`, the activity change, negative = inhibition entry is “inactive”.

As to `CCOC(=O)C(CC)C1=NC(C)(C)Cc2ccccc21.O=[N+]([O-])c1cc([N+](=O)[O-])c(O)c([N+](=O)[O-])c1` (stereo unspecified), the activity change, negative = inhibition result is “inactive”.

`O=C(NCC1(N2CCOCC2)CCCCC1)c1ccc([N+](=O)[O-])cc1`: the activity change, negative = inhibition entry was “inactive”.

Consider `CC(C)(C)OC(=O)N1CCC(N(C(=O)c2ccccc2)c2ccc(Cl)cc2)CC1`, for which the activity change, negative = inhibition entry was “inactive”.

Regarding `O=C(NCC1(N2CCOCC2)CCCCC1)c1ccccc1[N+](=O)[O-]`, the activity change, negative = inhibition result was “inactive”.

On to `N#Cc1ccc(C(=O)NCC2(N3CCCCC3)CCCCC2)cc1`, for which the activity change, negative = inhibition entry was “inactive”.

With `c1ccc(CN2CCC(Nc3ccccc3)CC2)cc1`, the activity change, negative = inhibition result is “inactive”.

Consider `CCCN1CCC(Nc2cc(OC)cc(OC)c2)CC1`, for which the activity change, negative = inhibition entry was “inactive”.

For the compound `Cc1cc(N(CCCl)CCCl)ccc1C=O`, the activity change, negative = inhibition is inactive: 9.18% [at 11.4 µM].

Take `O=C(NCC1(N2CCOCC2)CCCCC1)c1ccccc1`: the activity change, negative = inhibition result is “inactive”.

Consider `CN(C)C1(CNC(=O)c2cccc(C#N)c2)CCCCC1`, for which the activity change, negative = inhibition entry was “inactive”.
